Patent US4563471A, “4-Oxothiazolidin-2-ylidene-acetamide derivatives as CNS agents” (Warner-Lambert Company, priority 1983, dated 1986)

Test: in vivo
Details: mouse, po
Procedure: The determination of the acute toxicity was carried out on male mice (NMRI) with a body weight of 18-23 g. All experimental animals were fasted for 20 hours before commencement of the experiment. Water was available ad libitum. To each dosage group there belonged four animals. The dosage sequence was logarithmic. The test substances were administered intragastrally as suspension in 0.88% Methocel. The volume of administration amounted to 20 ml/kg.

Work on `O=C1NC(=O)C(c2ccccc2)(c2ccccc2)N1` [phenytoin] yielded an LD50 at 168 h of 490 mg/kg and a selectivity ratio of 2.5 to 213.
